Measurements from patent publication US9550796B2, “Pyrrolopyrrolone derivatives and their use as BET inhibitors” (NOVARTIS AG, priority 2013, dated 2017).

Chains of the proteins cited; added tags and fusions are not shown. Residues count along the entry.
UniProt Q92793, 1081-1197: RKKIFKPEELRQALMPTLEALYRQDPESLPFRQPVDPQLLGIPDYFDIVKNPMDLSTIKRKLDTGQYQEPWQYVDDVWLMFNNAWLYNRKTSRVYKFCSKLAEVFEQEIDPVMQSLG

Experiments:
[1] = molecular target: BRD4 (Homo sapiens (Human), UniProt O60885); test: TR-FRET in-vitro binding assay for BRD4; conditions: 45 nM His-Brd4(44-477), acetyl-histone H4 (AcK 5, 8, 12, 16) peptide
Protocol: TR-FRET In-Vitro Binding Assays for BRD2, BRD3, and BRD4: All assays were performed in 384-well microtiter plates. […] Liquid handling and incubation steps were done on an Innovadyne Nanodrop Express equipped with a robotic arm (Thermo CatX, Perkin Elmer/Caliper Twister II) and an incubator (Liconic STX40, Thermo Cytomat 2C450). The assay plates were prepared by addition of 50 nl per well of compound solution in 90% DMSO HummingBird nanodispenser (Zinsser Analytic). […] Reactions were incubated at 30° C. for 35 minutes. […] After 35 minutes incubation at 30° C., plates were measured in a Perkin Elmer EnVision multilabel reader. […] The stock solutions were stored at […] if not used immediately. For the test procedure the vials were defrosted and identified by a scanner whereby a working sheet was generated that guided the subsequent working steps. Compound dilutions were made in 96 well plates. This format enabled the assay of maximally […] at 8 concentrations (single points) including 4 reference compounds, if desired (known BET inhibitors from the prior art, for this and other assays of the type disclosed herein). The dilution protocol included the production of “pre-dilution plates”, “master plates” and “assay plates”. Polypropylene 96-well plates were used as pre-dilution plates. […] All dilution steps were done on a HamiltonSTAR robot. […]

[2] = molecular target: CREBBP (Homo sapiens (Human), UniProt Q92793); test: AlphaScreen in-vitro binding assay for CREBBP; conditions: 324 nM His-CREBBP (1081-1197), acetyl-histone H4 (AcK 5, 8, 12) peptide
Protocol: AlphaScreen In-Vitro Binding Assay for CREBBP
In order to assess bromodomain selectivity, we set up a binding assay using the bromodomain encoded by the CREBBP gene. Compounds were tested in the CREBBP assay with a similar protocol, however using AlphaScreen (Amplified Luminescent Proximity Homogeneous Assay, Perkin Elmer) as detection readout instead of TR-FRET. The assay was started by stepwise addition of 4.5 μL per well of bromo domain protein (50 mM HEPES, pH 7.5, 0.005% Tween20, 0.02% BSA, 150 mM NaCl, 324 nM His-CREBBP (1081-1197) (custom production at Viva Biotech Ltd.)) and 4.5 μL per well of peptide solution (50 mM HEPES, pH 7.5, 0.005% Tween20, 0.02% BSA, 150 mM NaCl, 120 nM acetyl-histone H4 (AcK 5, 8, 12) (Biosyntan GmbH)). Reactions were incubated at 30° C. for 35 minutes. Subsequently 4.5 μL per well detection mix (50 mM HEPES, pH 7.5, 0.005% Tween20, 0.02% BSA, 150 mM NaCl, 45 μg/ml Ni-chelate acceptor beads, 45 μg/mL streptavidin-donor beads) (Perkin Elmer)) were added. After 60 minutes incubation at room temperature, plates were measured in a Perkin Elmer EnVision multilabel reader. IC50 values were determined from percent inhibition values at different compound concentrations by non-linear regression analysis.
Test compounds were dissolved in DMSO (10 mM) and transferred into 1.4 mL flat bottom or V-shaped Matrix tubes carrying a unique 2D matrix. […]

Question: Which IC50 [1] does the source give for `COc1cccc(C2c3c(ccn3C)C(=O)N2c2cc(Cl)c(=O)n(C)c2)c1` (centres unmarked) [Example 91, 5-(5-chloro-1-methyl-6-oxo-1,6-dihydropyridin-3-yl)-6-(3-methoxyphenyl)-1-methyl-5,6-dihydropyrrolo[3,4-b]pyrrol-4(1H)-one] here?
Answer: 1.08 µM

Question: What about the IC50 [2] of the same compound?
Answer: 11.1 µM
